Experimental data as given in publication PMC7645381, “Development and application of a high-throughput screening assay for identification of small molecule inhibitors of the P. falciparum reticulocyte binding-like homologue 5 protein” (International Journal for Parasitology: Drugs and Drug …, 2020).

Chains of the proteins cited; added tags and fusions are not shown. Residues count along the entry.
UniProt Q8IFM5, 24-526: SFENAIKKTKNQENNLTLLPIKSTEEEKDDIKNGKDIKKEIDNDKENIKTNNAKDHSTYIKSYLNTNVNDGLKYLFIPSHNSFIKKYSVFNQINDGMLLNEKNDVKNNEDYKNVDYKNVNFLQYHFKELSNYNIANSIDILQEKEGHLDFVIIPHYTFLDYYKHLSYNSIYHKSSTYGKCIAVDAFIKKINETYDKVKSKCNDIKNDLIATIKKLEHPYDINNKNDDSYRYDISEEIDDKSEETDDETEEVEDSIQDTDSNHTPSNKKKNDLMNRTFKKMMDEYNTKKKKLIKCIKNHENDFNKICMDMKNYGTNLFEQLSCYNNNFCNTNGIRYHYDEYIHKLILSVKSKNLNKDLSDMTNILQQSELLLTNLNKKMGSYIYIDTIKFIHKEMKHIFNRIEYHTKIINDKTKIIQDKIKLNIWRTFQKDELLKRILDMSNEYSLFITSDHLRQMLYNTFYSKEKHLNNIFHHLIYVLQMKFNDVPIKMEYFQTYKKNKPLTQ

Target: P. falciparum Rh5 (Rh5 – basigin interaction) (Plasmodium falciparum, UniProt Q8IFM5)
Format: binding
Conditions: highest concentration tested 50 μM

CC(C)(O)c1ccccc1CC[C@@H](SCC1(CC(=O)O)CC1)c1cccc(/C=C/c2ccc3ccc(Cl)cc3n2)c1 [Montelukast, montelukast, reference compound]
Rh5 inhibitory activity in the AlphaScreen assay: did not show Rh5 inhibitory activity
